Here are results for one molecule from ChEMBL document CHEMBL1125532, “Synthesis and cholinergic properties of N-aryl-2-[[[5-[(dimethylamino)methyl]-2-furanyl]methyl]thio]ethylamino analogs of ranitidine” (J Med Chem, 1992).

Amino acid sequences for entries named in this document (tags omitted).
UniProt P06276, whole entry: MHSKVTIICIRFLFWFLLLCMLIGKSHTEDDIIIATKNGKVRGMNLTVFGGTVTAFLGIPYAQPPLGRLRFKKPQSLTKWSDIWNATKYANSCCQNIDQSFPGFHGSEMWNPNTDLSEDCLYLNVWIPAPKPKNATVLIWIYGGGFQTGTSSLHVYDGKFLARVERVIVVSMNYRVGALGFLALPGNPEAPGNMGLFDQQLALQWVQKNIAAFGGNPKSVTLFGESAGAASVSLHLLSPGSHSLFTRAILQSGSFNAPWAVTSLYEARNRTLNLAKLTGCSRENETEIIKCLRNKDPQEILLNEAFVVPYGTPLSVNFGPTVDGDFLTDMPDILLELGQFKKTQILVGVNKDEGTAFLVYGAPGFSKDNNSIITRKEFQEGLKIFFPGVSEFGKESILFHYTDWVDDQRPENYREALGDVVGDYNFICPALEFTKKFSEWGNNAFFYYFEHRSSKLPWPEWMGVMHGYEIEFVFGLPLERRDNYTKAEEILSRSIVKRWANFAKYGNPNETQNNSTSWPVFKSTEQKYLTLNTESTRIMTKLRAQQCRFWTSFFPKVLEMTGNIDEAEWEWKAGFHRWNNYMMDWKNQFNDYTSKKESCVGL

Each structure is given as a SMILES string. pIC50: −log10 of the molar value.

For this assay, the target named is Cholinesterase (Homo sapiens, UniProt P06276). The assay can be described thus: In vitro Butyrylcholinesterase inhibitory activity to determine its ability to reverse the cholinergic deficit characteristic of AD.

As a reminder, the pIC50 is the IC50 on a negative log10 scale, so that one unit is a factor of ten. Low readings indicate a high IC50, high ones a low IC50. With `CN(C)Cc1ccc(CSCCNc2nnccc2[N+](=O)[O-])o1`, the pIC50 was 5.00.
